Laboratory results published in paper PMC8273886.

Sequences of proteins named here, by UniProt entry; tags and fusion partners are left off.
UniProt P42866, whole entry: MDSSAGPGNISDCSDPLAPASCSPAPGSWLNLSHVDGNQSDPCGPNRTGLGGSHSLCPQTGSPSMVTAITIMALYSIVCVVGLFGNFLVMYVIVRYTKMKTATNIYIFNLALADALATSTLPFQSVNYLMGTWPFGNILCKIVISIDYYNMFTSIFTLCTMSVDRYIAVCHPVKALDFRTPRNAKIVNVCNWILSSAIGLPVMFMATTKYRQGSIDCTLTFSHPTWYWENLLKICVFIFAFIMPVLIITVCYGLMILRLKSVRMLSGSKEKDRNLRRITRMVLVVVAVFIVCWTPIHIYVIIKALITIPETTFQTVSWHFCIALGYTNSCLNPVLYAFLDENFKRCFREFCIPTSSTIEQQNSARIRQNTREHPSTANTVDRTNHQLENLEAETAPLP
UniProt P33534, whole entry: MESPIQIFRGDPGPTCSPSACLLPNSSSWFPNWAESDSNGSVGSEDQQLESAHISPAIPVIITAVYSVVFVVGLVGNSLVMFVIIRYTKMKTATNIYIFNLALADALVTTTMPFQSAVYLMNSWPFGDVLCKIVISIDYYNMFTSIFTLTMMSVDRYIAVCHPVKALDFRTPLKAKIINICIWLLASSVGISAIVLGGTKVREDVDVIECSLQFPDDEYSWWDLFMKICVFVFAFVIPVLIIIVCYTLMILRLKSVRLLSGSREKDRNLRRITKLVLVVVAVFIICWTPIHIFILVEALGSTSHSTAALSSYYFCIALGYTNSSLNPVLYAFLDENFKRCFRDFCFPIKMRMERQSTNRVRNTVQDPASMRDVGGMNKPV

Columns and labels:
[1] = target: mouse μ-opioid receptor (MOR) (Mus musculus, UniProt P42866); conditions: taken from the literature ref 19, 76; cited from earlier work
[2] = target: mouse δ-opioid receptor (DOR) (Mus musculus, UniProt P32300); conditions: taken from the literature ref 19, 76; cited from earlier work
mouse KOR = mouse KOR (Mus musculus, UniProt P33534); test: Saturation binding assay with [3H]-diprenorphine; conditions: read-out: equilibrium dissociation constant Kd; HEK293 cells stably expressing mouse KOR, n = 2

## [^3H]-diprenorphine
[1]
  Kd: 0.81 nM
[2]
  Kd: 1.7 nM
Mouse KOR
  Kd: 0.87 nM

Some compounds may have been tested in ways that are not shown here.
